Measured values published in PubChem BioAssay AID1825 (The Scripps Research Institute Molecular Screening Center, 2009).
The list shows a part of the results, in another mix than the full data. Calls of active or inactive are those of the source. No stated cut-off is given here; in the data, active means inhibition above about 22%; inactive means the rest.

Assay: IEC-6 cell viability reduction – luminescence, cytotoxicity control for KLF5 inhibitor project, primary screen (AID 1825);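 further: 0% = plate median of test compound wells and 100% = cytotoxic reference compound wells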
Details: IEC-6 cytotoxicity, at 5 µM, active compounds read high

With `COc1cc(OC)c(C(=O)NCC2(N(C)C)CCCCC2)cc1OC` as the molecule, how does the inhibition read?
The inhibition was inactive: -1.9%.

Which inhibition does the source give for `CC(C)c1ccc(NC2CCN(C(=O)OC(C)(C)C)CC2)cc1` here?
Its inhibition is inactive: 4.5%.

Which inhibition does the source give for `CN(C)c1cccc(C(=O)NCC2(N3CCCCC3)CCCCC2)c1` here?
The inhibition was inactive: 3.5%.

For `COc1ccc(CN(CCCl)CCCl)cc1Cl`, which inhibition is on record?
Its inhibition is inactive: -1.4%.

For `CCCOc1ccc(C(=O)NCC2(N(C)C)CCCCC2)cc1OC`, which inhibition is on record?
Its inhibition is inactive: 4.5%.

For `CN1CCC(Nc2cccc(F)c2)CC1`, which inhibition is on record?
The inhibition was inactive: 8.9%.

For `N#CC1(Nc2ccccc2)CCN(CCc2ccccc2)CC1`, which inhibition is on record?
The inhibition was inactive: -0.8%.

With `CCN1CCC(Nc2ccc(Cl)cc2)CC1` as the molecule, how does the inhibition read?
Its inhibition is inactive: -10.5%.

Which inhibition does the source give for `O=C(NCC1(N2CCCCC2)CCCCC1)c1cccc([N+](=O)[O-])c1` here?
Its inhibition is inactive: -9.4%.

For `O=C(NCC1(N2CCCCC2)CCCCC1)c1ccc(OC(F)F)cc1`, which inhibition is on record?
The inhibition was inactive: -1.6%.

For `O=C(NCC1(N2CCOCC2)CCCCC1)c1cc(=O)[nH]c2ccccc12`, which inhibition is on record?
Its inhibition is inactive: 3.2%.

Which inhibition does the source give for `COc1cc(C(=O)NCC2(N3CCCCC3)CCCCC2)ccc1OC(F)F` here?
The inhibition was inactive: -0.8%.

With `COc1ccc(NC2CCN(C(=O)OC(C)(C)C)CC2)cc1` as the molecule, how does the inhibition read?
Its inhibition is inactive: -6.8%.

With `CN1CCN(CCOC(=O)C(O)(c2ccccc2)c2ccccc2)CC1` as the molecule, how does the inhibition read?
Its inhibition is inactive: -2.7%.

For `O=C(NCC1(N2CCCCC2)CCCCC1)c1cccc(C(F)(F)F)c1`, which inhibition is on record?
Its inhibition is inactive: -0.6%.

With `CCOC(=O)N1CCC(Nc2ccc(F)cc2)CC1` as the molecule, how does the inhibition read?
The inhibition was inactive: 5.1%.

For `COc1ccc(NC2CCN(CCc3ccccc3)CC2)c(OC)c1`, which inhibition is on record?
Its inhibition is inactive: -4.9%.

Which inhibition does the source give for `O=C(NCC1(N2CCCCC2)CCCCC1)c1ccc(F)cc1` here?
Its inhibition is inactive: -3.4%.

For `CCOc1ccc(C)cc1CN(CCCl)CCCl`, which inhibition is on record?
Its inhibition is inactive: -4.4%.

For `Cc1ccc(OCC(C)C)c(CN(CCCl)CCCl)c1`, which inhibition is on record?
The inhibition was inactive: 4%.

For `CCOC(=O)N1CCC(Nc2cccc(C)c2)CC1`, which inhibition is on record?
Its inhibition is inactive: 9.1%.

Which inhibition does the source give for `COc1cc(C(=O)NCC2(N(C)C)CCCCC2)ccc1OC(F)F` here?
The inhibition was inactive: 1.3%.

With `CSc1ccccc1C(=O)NCC1(N2CCCCC2)CCCCC1` as the molecule, how does the inhibition read?
Its inhibition is inactive: 0.4%.

Which inhibition does the source give for `COc1ccc(C(=O)NCC2(N3CCCCC3)CCCCC2)c(OC)c1OC` here?
The inhibition was inactive: -4.9%.

For `CC(C)(C)OC(=O)N1CCC(N(C(=O)c2ccccc2)c2ccc(F)cc2)CC1`, which inhibition is on record?
Its inhibition is inactive: -0.6%.

For `COc1ccc(C(=O)NCC2(N3CCCCC3)CCCCC2)cc1`, which inhibition is on record?
The inhibition was inactive: 2.3%.

For `O=C(NCC1(N2CCCCC2)CCCCC1)c1ccc(=O)[nH]c1`, which inhibition is on record?
The inhibition was inactive: -2.4%.

For `N#CC1(Nc2ccccc2)CCN(Cc2ccccc2)CC1`, which inhibition is on record?
Its inhibition is inactive: -4%.

For `O=C(OC1CN2CCC1CC2)C1c2ccccc2Oc2ccccc21` (centres undefined), which inhibition is on record?
The inhibition was inactive: 1%.

With `CCOC(=O)N1CCC(Nc2ccc(OC)cc2)CC1` as the molecule, how does the inhibition read?
Its inhibition is inactive: 0.6%.

With `Cc1cc(C)cc(N(C(=O)c2ccccc2)C2CCN(C(=O)OC(C)(C)C)CC2)c1` as the molecule, how does the inhibition read?
The inhibition was inactive: -1.7%.

For `O=C(NCC1(N2CCOCC2)CCCCC1)c1cc2ccccc2o1`, which inhibition is on record?
The inhibition was inactive: -2.6%.

With `O=C(O)C1(Nc2ccccc2)CCN(Cc2ccccc2)CC1` as the molecule, how does the inhibition read?
The inhibition was inactive: -6%.

With `CC(C)(C)OC(=O)N1CCC(Nc2ccccc2)CC1` as the molecule, how does the inhibition read?
Its inhibition is inactive: 1.4%.

With `CCCOc1ccc(C(=O)NCC2(N(C)C)CCCCC2)cc1` as the molecule, how does the inhibition read?
The inhibition was inactive: 2.2%.

With `CN1CCC(Nc2ccc(F)c(Cl)c2)CC1` as the molecule, how does the inhibition read?
Its inhibition is inactive: 1.2%.

With `CCOc1ncccc1C(=O)NCC1(N2CCOCC2)CCCCC1` as the molecule, how does the inhibition read?
Its inhibition is inactive: 5.2%.

For `CN1CCC(Nc2ccc(Cl)cc2)CC1`, which inhibition is on record?
The inhibition was inactive: -0.7%.

For `CCCOc1ccc(C)cc1CN(CCCl)CCCl`, which inhibition is on record?
Its inhibition is inactive: -2.2%.

With `COc1cccc(C(=O)N(c2cc(C)cc(C)c2)C2CCN(C(=O)OC(C)(C)C)CC2)c1` as the molecule, how does the inhibition read?
The inhibition was inactive: 0.4%.

With `COc1cc(OC)cc(C(=O)NCC2(N3CCOCC3)CCCCC2)c1` as the molecule, how does the inhibition read?
The inhibition was inactive: 4.4%.

For `CCC(CO)(C(=O)OC1CN2CCC1CC2)c1ccccc1` (centres undefined), which inhibition is on record?
The inhibition was inactive: -1.5%.

With `COc1cc(OC)cc(C(=O)NCC2(N3CCCCC3)CCCCC2)c1` as the molecule, how does the inhibition read?
Its inhibition is inactive: 9.3%.

For `CN(C)c1ccc(C(=O)NCC2(N3CCCCC3)CCCCC2)cc1`, which inhibition is on record?
Its inhibition is inactive: -0.8%.

For `CCN1CCC(Nc2cccc(F)c2)CC1`, which inhibition is on record?
Its inhibition is inactive: 2.7%.

For `N#Cc1ccc(C(=O)NCC2(N3CCCCC3)CCCCC2)cc1`, which inhibition is on record?
Its inhibition is inactive: 3.6%.

With `CC(C)(C)OC(=O)N1CCC(N(C(=O)c2ccccc2)c2ccc(Cl)cc2)CC1` as the molecule, how does the inhibition read?
The inhibition was inactive: -5.3%.

With `CN(C)C1(CNC(=O)c2cccc(C#N)c2)CCCCC1` as the molecule, how does the inhibition read?
The inhibition was inactive: 2.4%.

With `CCCN1CCC(Nc2cc(OC)cc(OC)c2)CC1` as the molecule, how does the inhibition read?
Its inhibition is inactive: 1.4%.

For `c1ccc(CN2CCC(Nc3ccccc3)CC2)cc1`, which inhibition is on record?
Its inhibition is inactive: -0.6%.

For `COc1ccc(C(=O)NCC2(N3CCOCC3)CCCCC2)cc1OC`, which inhibition is on record?
The inhibition was inactive: 5.2%.

Which inhibition does the source give for `O=C(OC1CN2CCC1CC2)C1c2ccccc2C=Cc2ccccc21` (centres undefined) here?
The inhibition was inactive: -1.9%.

For `CCOC(=O)N1CCC(Nc2ccc(C)cc2)CC1`, which inhibition is on record?
Its inhibition is inactive: -10.3%.

Which inhibition does the source give for `N/C(=N\O)c1c(N)no[n+]1[O-]` here?
Its inhibition is inactive: 2.9%.
